{"source": "ChEMBL document CHEMBL1773034", "about": "(J Nat Prod, 2011)", "biological_target": "T1, Polyunsaturated fatty acid lipoxygenase ALOX12 (Homo sapiens, UniProt P18054)", "T1 sequence (P18054 whole entry)": "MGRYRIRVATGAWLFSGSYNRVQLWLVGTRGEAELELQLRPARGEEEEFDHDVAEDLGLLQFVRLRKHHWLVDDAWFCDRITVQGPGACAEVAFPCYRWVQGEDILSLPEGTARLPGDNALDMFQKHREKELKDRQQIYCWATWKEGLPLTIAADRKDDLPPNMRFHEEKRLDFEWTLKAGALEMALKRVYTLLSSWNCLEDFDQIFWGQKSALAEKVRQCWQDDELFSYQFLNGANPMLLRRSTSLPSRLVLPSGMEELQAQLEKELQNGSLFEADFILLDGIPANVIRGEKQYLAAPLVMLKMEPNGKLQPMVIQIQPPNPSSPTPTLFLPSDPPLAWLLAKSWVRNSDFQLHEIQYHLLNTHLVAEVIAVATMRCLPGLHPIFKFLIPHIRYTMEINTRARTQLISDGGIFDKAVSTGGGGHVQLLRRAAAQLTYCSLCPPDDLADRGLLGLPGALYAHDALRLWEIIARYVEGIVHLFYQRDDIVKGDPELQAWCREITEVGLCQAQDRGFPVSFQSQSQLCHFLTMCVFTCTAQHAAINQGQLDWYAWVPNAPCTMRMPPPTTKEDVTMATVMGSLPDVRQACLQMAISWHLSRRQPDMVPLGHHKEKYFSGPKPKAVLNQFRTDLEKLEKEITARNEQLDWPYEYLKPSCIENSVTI", "assay": "Inhibition of 12-LOX"}
{"smiles": "CC(C)=CCc1c(-c2ccc(O)cc2O)oc2c3c(cc(O)c2c1=O)OC(C)(C)C=C3", "note": "[MORUSIN]", "values": [{"measurement": "IC50", "value": 100, "unit": "µM"}]}
